Membrane permeability of cyclic peptides

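Conditions beyond the assay type are not listed; see the original paper. Other peptides of the study may be missing here. Entries at the database's floor value (log10 P of -10) are not listed.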

PAMPA is the parallel artificial membrane permeability assay, which has no cells and reads passive diffusion.
Values are log10 P with P in cm/s, so -5 is more permeable than -7.

PAMPA (log10 cm/s)	compound
-6.30	CC(C)C[C@H]1NC(=O)[C@H]2CCCN2C(=O)C[C@H](Cc2ccccc2)NC(=O)[C@H](CC(C)C)N(C)C(=O)[C@@H](C)N(C)C(=O)[C@H]2CCCN2C(=O)[C@H](Cc2ccccc2)NC1=O
-5.18	CCCN1CC(=O)N[C@H](CC(C)C)C(=O)N(C)[C@@H](CC(C)C)C(=O)N2CCC[C@@H]2C(=O)N(C)[C@@H](CC(C)C)C(=O)N[C@@H](Cc2ccccc2)C(=O)N2CCC[C@@H]2C1=O
-5.59	CC(C)C[C@@H]1NC(=O)[C@@H](C)NC(=O)[C@H](Cc2ccccc2)NC(=O)[C@H](CC(C)C)N(C)C(=O)[C@@H]2CCCN2C(=O)CN(Cc2ccccc2)C1=O
-5.07	CC(C)C[C@@H]1C(=O)N[C@@H](Cc2ccccc2)C(=O)N2CCC[C@@H]2C(=O)N(C)[C@@H](C)C(=O)N[C@H](CC(C)C)C(=O)N(C)[C@@H](CC(C)C)C(=O)N2CCC[C@H]2C(=O)N1C
-6.76	CC(C)C[C@H]1NC(=O)[C@H](C)NC(=O)[C@H]2CCCN2C(=O)[C@H](Cc2ccccc2)NC(=O)[C@@H](CC(C)C)NC(=O)[C@H]2CCCN2C(=O)[C@@H](CC(C)C)NC1=O
-5.48	CC(C)C[C@H]1NC(=O)C[C@H](Cc2ccccc2)NC(=O)[C@H]2CCCN2C(=O)[C@H](Cc2ccccc2)NC(=O)[C@H](CC(C)C)N(C)C(=O)[C@@H]2CCCN2C(=O)[C@@H](CC(C)C)NC1=O
-6.04	CC(C)C[C@H]1C(=O)N(Cc2ccccc2)CC(=O)N2CCC[C@H]2C(=O)N(C)[C@@H](CC(C)C)C(=O)N[C@@H](Cc2ccccc2)C(=O)N2CCC[C@@H]2C(=O)N[C@H](C)C(=O)N1C
-5.17	CCCN1CC(=O)N(C)[C@@H](CC(C)C)C(=O)N[C@@H](CC(C)C)C(=O)N2CCC[C@H]2C(=O)N(C)[C@H](CC(C)C)C(=O)N[C@@H](Cc2ccccc2)C(=O)N2CCC[C@H]2C1=O
-5.05	CCCN1CC(=O)N(C)[C@@H](CC(C)C)C(=O)N(C)[C@H](CC(C)C)C(=O)N2CCC[C@@H]2C(=O)N[C@H](CC(C)C)C(=O)N[C@@H](Cc2ccccc2)C1=O
-5.90	CC(C)C[C@@H]1C(=O)N[C@@H](Cc2ccccc2)C(=O)N2CCC[C@H]2C(=O)N[C@@H](C)C(=O)N[C@H](CC(C)C)C(=O)N(Cc2ccccc2)CC(=O)N2CCC[C@H]2C(=O)N1C
-4.82	CCCN1CC(=O)N(C)[C@@H](CC(C)C)C(=O)N[C@@H](CC(C)C)C(=O)N2CCC[C@H]2C(=O)N(C)[C@@H](CC(C)C)C(=O)N[C@@H](Cc2ccccc2)C1=O
-5.71	CC(C)C[C@@H]1NC(=O)[C@@H](C)N(C)C(=O)[C@H]2CCCN2C(=O)[C@H](Cc2ccccc2)NC(=O)CN(Cc2ccccc2)C(=O)[C@H]2CCCN2C(=O)CN(Cc2ccccc2)C1=O
-5.38	CC(C)C[C@@H]1NC(=O)[C@@H](CC(C)C)NC(=O)C[C@H](Cc2ccccc2)NC(=O)[C@H](Cc2ccccc2)NC(=O)[C@@H](CC(C)C)N(C)C(=O)[C@H]2CCCN2C1=O
-5.10	CC(C)C[C@@H]1NC(=O)[C@@H](C)N(C)C(=O)[C@H]2CCCN2C(=O)[C@H](Cc2ccccc2)NC(=O)[C@H](CC(C)C)N(C)C(=O)[C@H]2CCCN2C(=O)[C@H](CC(C)C)N(C)C1=O
-5.19	CC(C)C[C@@H]1C(=O)N[C@@H](Cc2ccccc2)C(=O)N[C@H](C)C(=O)N(C)[C@@H](CC(C)C)C(=O)N(C)[C@@H](CC(C)C)C(=O)N2CCC[C@H]2C(=O)N1C
-5.48	CC(C)C[C@@H]1NC(=O)[C@H]2CCCN2C(=O)[C@H](CC(C)C)NC(=O)[C@H](CC(C)C)N(C)C(=O)[C@H](C)N(C)C(=O)[C@H]2CCCN2C(=O)[C@H](Cc2ccccc2)NC1=O
-6.26	CCCN1CC(=O)N(C)[C@H](CC(C)C)C(=O)N[C@H](CC(C)C)C(=O)N2CCC[C@@H]2C(=O)N[C@H](CC(C)C)C(=O)N[C@@H](Cc2ccccc2)C(=O)N2CCC[C@H]2C1=O
-5.21	CC(C)C[C@@H]1C(=O)N2CCC[C@@H]2C(=O)N(C)[C@@H](CC(C)C)C(=O)N[C@@H](Cc2ccccc2)C(=O)N2CCC[C@@H]2C(=O)N(C)[C@H](C)C(=O)N[C@H](CC(C)C)C(=O)N1C
-5.42	CC(C)C[C@@H]1NC(=O)[C@@H](C)N(C)C(=O)[C@@H]2CCCN2C(=O)[C@H](Cc2ccccc2)NC(=O)[C@H](CC(C)C)N(C)C(=O)[C@@H]2CCCN2C(=O)[C@H](CC(C)C)N(C)C1=O
-5.68	CC(C)C[C@@H]1NC(=O)[C@@H](C)NC(=O)[C@@H]2CCCN2C(=O)[C@H](Cc2ccccc2)NC(=O)[C@@H](CC(C)C)N(C)C(=O)[C@@H]2CCCN2C(=O)[C@@H](CC(C)C)N(C)C1=O

Extract of 3 entries:

| compound | PAMPA (log10 cm/s) |
|---|---|
| CC(C)C[C@H]1NC(=O)C[C@H](Cc2ccccc2)NC(=O)[C@H]2CCCN2C(=O)[C@H](Cc2ccccc2)NC(=O)[C@H](CC(C)C)N(C)C(=O)[C@@H]2CCCN2C(=O)[C@@H](CC(C)C)NC1=O | -5.48 |
| CCCN1CC(=O)N(C)[C@@H](CC(C)C)C(=O)N(C)[C@H](CC(C)C)C(=O)N2CCC[C@@H]2C(=O)N[C@H](CC(C)C)C(=O)N[C@@H](Cc2ccccc2)C1=O | -5.05 |
| CC(C)C[C@@H]1NC(=O)[C@@H](C)N(C)C(=O)[C@H]2CCCN2C(=O)[C@H](Cc2ccccc2)NC(=O)[C@H](CC(C)C)N(C)C(=O)[C@H]2CCCN2C(=O)[C@H](CC(C)C)N(C)C1=O | -5.10 |

Values of Townsend et al. 2020, doi:10.26434/chemrxiv.13335941.v1, as listed in CycPeptMPDB.